Our source for the Z score values is patent publication US8058243B2, “Method for treating a brain cancer with ifenprodil” (HSC Research and Development Limited Partnership, priority 2006, dated 2011).

The subject of the assay is murine neural precursor cells (neurosphere cultures). In words: HTS of LOPAC library against secondary neurosphere cultures, MTT proliferation assay at 3 μM, day 7 (z score, P value). The following applies: LOPAC primary screen.

Regarding R-(−)-Fluoxetine hydrochloride, the Z score is listed as −0.128.
